Data on 6 compounds can be found in patent US6936585B2, “Corticotropin releasing factor 2 receptor agonists” (priority 2002, dated 2005).

The target in one assay is T1, CRF2R (Homo sapiens, UniProt Q13324).
T1 sequence (Q13324 1-411): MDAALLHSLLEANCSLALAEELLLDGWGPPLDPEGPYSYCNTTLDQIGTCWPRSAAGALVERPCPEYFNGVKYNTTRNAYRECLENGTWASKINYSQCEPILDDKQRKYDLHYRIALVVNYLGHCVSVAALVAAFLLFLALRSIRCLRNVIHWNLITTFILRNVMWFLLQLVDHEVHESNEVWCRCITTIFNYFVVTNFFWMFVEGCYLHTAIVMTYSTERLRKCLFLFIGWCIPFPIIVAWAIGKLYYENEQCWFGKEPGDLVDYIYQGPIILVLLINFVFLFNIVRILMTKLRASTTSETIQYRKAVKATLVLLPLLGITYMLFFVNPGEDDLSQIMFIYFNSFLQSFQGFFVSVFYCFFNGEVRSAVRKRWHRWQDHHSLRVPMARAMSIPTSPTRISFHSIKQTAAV
Kind of assay: CRF2R agonist activation (EC50 / Emax), called comparative CRF binding. The class given is cell-based. The following applies: for Emax: read-out: CRF2R Emax. In outline: (§1)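 CRFR-expressing cells + peptide vs vehicle; read-out cAMP (lysate assay) or CRE-linked reporter expression (luciferase, CAT, fluorescent protein, alkaline phosphatase, etc.). Signal compared against vehicle-treated cells.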

The next assay deals with T2, CRF1R (Homo sapiens, UniProt P34998).
T2 sequence (P34998 24-415): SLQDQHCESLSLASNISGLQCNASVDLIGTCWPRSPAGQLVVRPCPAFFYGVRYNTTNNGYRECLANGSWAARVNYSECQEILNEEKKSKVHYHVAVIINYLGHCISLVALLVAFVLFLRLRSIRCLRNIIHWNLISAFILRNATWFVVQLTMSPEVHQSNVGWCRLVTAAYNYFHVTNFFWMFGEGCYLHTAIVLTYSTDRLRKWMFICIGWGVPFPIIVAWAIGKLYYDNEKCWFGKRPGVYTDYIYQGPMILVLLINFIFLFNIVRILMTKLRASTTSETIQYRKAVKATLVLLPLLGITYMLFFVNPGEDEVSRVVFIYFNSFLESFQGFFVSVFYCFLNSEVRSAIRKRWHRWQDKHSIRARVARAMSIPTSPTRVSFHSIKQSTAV
Kind of assay: CRF1R agonist activation (EC50 / Emax), called comparative CRF binding. The assay is classed as cell-based. Particulars: for Emax: read-out: CRF1R Emax; for EC50: CRF1R EC50. In outline:
as §1

`CC[C@H](C)[C@H](NC(=O)[C@H](CCCNC(=N)N)NC(=O)[C@H](C)NC(=O)[C@H](CC(N)=O)NC(=O)[C@@H](NC(=O)[C@@H](NC(=O)[C@H](C)NC(=O)[C@H](CCC(N)=O)NC(=O)[C@H](CCC(N)=O)NC(=O)[C@H](CCCCN)NC(=O)[C@H](CCC(=O)O)NC(=O)[C@H](CCCCN)NC(=O)[C@H](CCC(=O)O)NC(=O)[C@H](CCC(N)=O)NC(=O)[C@H](CCCCN)NC(=O)[C@H](CCC(=O)O)NC(=O)[C@@H](NC(=O)[C@H](CCC(=O)O)NC(=O)[C@@H](NC(=O)[C@H](CCSC)NC(=O)[C@H](CCCCN)NC(=O)[C@H](CCCNC(=N)N)NC(=O)[C@H](CC(C)C)NC(=O)[C@H](CC(C)C)NC(=O)[C@H](Cc1ccc(O)cc1)NC(=O)[C@@H](NC(=O)[C@@H]1CCCN1C(=O)[C@H](CC(C)C)NC(=O)[C@H](CC(=O)O)NC(=O)[C@@H](NC(=O)[C@H](CO)NC(=O)[C@@H](NC(=O)[C@@H]1CCCN1C(=O)[C@@H]1CCCN1C(=O)CNC(=O)[C@@H]1CCC(=O)N1)[C@@H](C)CC)[C@@H](C)CC)[C@@H](C)O)[C@@H](C)CC)[C@@H](C)CC)[C@@H](C)O)[C@@H](C)O)C(=O)N[C@@H](CC(C)C)C(=O)N[C@@H](C)C(=O)N[C@@H](CCCNC(=N)N)C(=O)N[C@H](C(N)=O)C(C)C` [compound 151]: the Emax (commonly the maximal effect, on the per cent scale that the assay sets) stood at 96% on CRF2R and 19.9% at CRF1R.
As for `CC[C@H](C)[C@H](NC(=O)[C@H](CCC(=O)O)NC(=O)[C@H](C)NC(=O)[C@H](CC(C)C)NC(=O)[C@H](CC(C)C)NC(=O)[C@H](CCC(=O)O)NC(=O)[C@H](C)NC(=O)[C@H](CC(N)=O)NC(=O)[C@H](CC(N)=O)NC(=O)[C@H](C)NC(=O)[C@H](C)NC(=O)[C@H](CCC(N)=O)NC(=O)[C@H](CCC(N)=O)NC(=O)[C@H](CCCCN)NC(=O)[C@H](CCC(=O)O)NC(=O)[C@H](CCCCN)NC(=O)[C@H](CCC(=O)O)NC(=O)[C@H](CCC(N)=O)NC(=O)[C@H](CCCCN)NC(=O)[C@H](CCC(=O)O)NC(=O)[C@@H](NC(=O)[C@H](CCC(=O)O)NC(=O)[C@@H](NC(=O)[C@@H](NC(=O)[C@H](CCCCN)NC(=O)[C@H](CCCNC(=N)N)NC(=O)[C@H](CC(C)C)NC(=O)[C@H](CC(C)C)NC(=O)[C@H](CCC(N)=O)NC(=O)[C@H](Cc1ccccc1)NC(=O)[C@@H]1CCCN1C(=O)[C@H](CC(C)C)NC(=O)[C@H](CC(=O)O)NC(=O)[C@@H](NC(=O)[C@H](CO)NC(=O)[C@@H](NC(=O)[C@@H]1CCCN1C(=O)[C@@H]1CCCN1C(=O)CNC(=O)[C@@H]1CCC(=O)N1)[C@@H](C)CC)[C@@H](C)CC)C(C)C)[C@@H](C)CC)[C@@H](C)CC)C(N)=O` [compound 272], on CRF2R, the EC50 (as a rule, the midpoint of the concentration-response curve) worked out at 23.3 nM and the Emax was 100%. Further, on CRF1R, the EC50 is at least 1000 nM and the maximal effect (Emax) is 51.1%.
For `CC[C@H](C)[C@H](NC(=O)[C@@H](NC(=O)[C@H](CC(=O)O)NC(=O)[C@H](CC(C)C)NC(=O)[C@H](CC(C)C)NC(=O)[C@H](CC(C)C)NC(=O)[C@H](CCCNC(=N)N)NC(=O)[C@H](CC(N)=O)NC(=O)[C@H](CC(N)=O)NC(=O)[C@H](C)NC(=O)[C@H](C)NC(=O)[C@H](CCC(N)=O)NC(=O)[C@H](CCC(N)=O)NC(=O)[C@H](CCCCN)NC(=O)[C@H](CCC(=O)O)NC(=O)[C@H](CCCCN)NC(=O)[C@H](CCC(=O)O)NC(=O)[C@H](CCC(N)=O)NC(=O)[C@H](CCCCN)NC(=O)[C@H](CCC(=O)O)NC(=O)[C@@H](NC(=O)[C@H](CCC(=O)O)NC(=O)[C@@H](NC(=O)[C@H](CCSC)NC(=O)[C@H](CCCCN)NC(=O)[C@H](CCCNC(=N)N)NC(=O)[C@H](CC(C)C)NC(=O)[C@H](CC(C)C)NC(=O)[C@H](CCC(N)=O)NC(=O)[C@H](Cc1ccccc1)NC(=O)[C@@H]1CCCN1C(=O)[C@H](CC(C)C)NC(=O)[C@H](CC(=O)O)NC(=O)[C@@H](NC(=O)[C@H](CO)NC(=O)[C@@H](NC(=O)[C@@H]1CCCN1C(=O)[C@@H]1CCCN1C(=O)CNC(=O)[C@@H]1CCC(=O)N1)[C@@H](C)CC)[C@@H](C)CC)[C@@H](C)CC)[C@@H](C)CC)[C@@H](C)O)C(N)=O` [compound 84] the same measures were 1.77 nM, 100%, 82.2 nM and 99%.
As to `CC[C@H](C)[C@H](NC(=O)[C@H](CCC(=O)O)NC(=O)[C@@H](NC(=O)[C@H](CCSC)NC(=O)[C@H](CCCCN)NC(=O)[C@H](CCCNC(=N)N)NC(=O)[C@H](CC(C)C)NC(=O)[C@H](CC(C)C)NC(=O)[C@H](Cc1c[nH]cn1)NC(=O)[C@H](Cc1ccc(O)cc1)NC(=O)[C@@H]1CCCN1C(=O)[C@H](CC(C)C)NC(=O)[C@H](CC(=O)O)NC(=O)[C@@H](NC(=O)[C@H](CO)NC(=O)[C@@H](NC(=O)[C@@H]1CCCN1C(=O)[C@@H]1CCCN1C(=O)CNC(=O)[C@@H]1CCC(=O)N1)[C@@H](C)CC)[C@@H](C)CC)[C@@H](C)CC)C(=O)N[C@@H](CCC(=O)O)C(=O)N[C@@H](CCCCN)C(=O)N[C@@H](CCC(N)=O)C(=O)N[C@@H](CCC(=O)O)C(=O)N[C@@H](CCCCN)C(=O)N[C@@H](CCC(=O)O)C(=O)N[C@@H](CCCCN)C(=O)N[C@@H](CCC(N)=O)C(=O)N[C@@H](CCC(N)=O)C(=O)N[C@@H](C)C(=O)N[C@@H](C)C(=O)N[C@@H](CC(N)=O)C(=O)N[C@@H](CC(N)=O)C(=O)N[C@@H](C)C(=O)N[C@@H](CC(C)C)C(=O)N[C@@H](CC(C)C)C(=O)N[C@@H](CC(C)C)C(=O)N[C@@H](C)C(=O)N[C@H](C(N)=O)[C@@H](C)O` [compound 315], the values for the Emax on CRF2R and on CRF1R were 81.7% and 100%, respectively.
As to `CC[C@H](C)[C@H](NC(=O)[C@@H](NC(=O)[C@H](CC(=O)O)NC(=O)[C@H](CC(C)C)NC(=O)[C@H](CC(C)C)NC(=O)[C@H](CC(C)C)NC(=O)[C@H](CCCNC(=N)N)NC(=O)[C@H](CC(N)=O)NC(=O)[C@H](CC(N)=O)NC(=O)[C@H](C)NC(=O)[C@H](C)NC(=O)[C@H](CCC(N)=O)NC(=O)[C@H](CCC(N)=O)NC(=O)[C@H](CCCCN)NC(=O)[C@H](CCC(=O)O)NC(=O)[C@H](CCCCN)NC(=O)[C@H](CCC(=O)O)NC(=O)[C@H](CCC(N)=O)NC(=O)[C@H](CCCCN)NC(=O)[C@H](CCC(=O)O)NC(=O)[C@@H](NC(=O)[C@H](CCC(=O)O)NC(=O)[C@@H](NC(=O)[C@H](CCSC)NC(=O)[C@H](CCCCN)NC(=O)[C@H](CCCNC(=N)N)NC(=O)[C@H](CC(C)C)NC(=O)[C@H](CC(C)C)NC(=O)[C@H](Cc1ccccc1)NC(=O)[C@H](Cc1c[nH]cn1)NC(=O)[C@@H]1CCCN1C(=O)[C@H](CC(C)C)NC(=O)[C@H](CC(=O)O)NC(=O)[C@@H](NC(=O)[C@H](CO)NC(=O)[C@@H](NC(=O)[C@@H]1CCCN1C(=O)[C@@H]1CCCN1C(=O)CNC(=O)[C@@H]1CCC(=O)N1)[C@@H](C)CC)[C@@H](C)CC)[C@@H](C)CC)[C@@H](C)CC)[C@@H](C)O)C(N)=O` [compound 219], on CRF2R, the EC50 was 7.8 nM and the Emax was 98%. On CRF1R, a half-maximal response (EC50) required 80.9 nM and the Emax is 100%.
For `CC[C@H](C)[C@H](NC(=O)[C@@H](NC(=O)[C@H](CC(=O)O)NC(=O)[C@H](CC(C)C)NC(=O)[C@H](CC(C)C)NC(=O)[C@H](CC(C)C)NC(=O)[C@H](C)NC(=O)[C@H](CC(N)=O)NC(=O)[C@H](CC(N)=O)NC(=O)[C@H](C)NC(=O)[C@H](C)NC(=O)[C@H](CCC(N)=O)NC(=O)[C@H](CCC(N)=O)NC(=O)[C@H](CCCCN)NC(=O)[C@H](CCC(=O)O)NC(=O)[C@H](CCCCN)NC(=O)[C@H](CCC(=O)O)NC(=O)[C@H](CCC(N)=O)NC(=O)[C@H](CCCCN)NC(=O)[C@H](CCC(=O)O)NC(=O)[C@@H](NC(=O)[C@H](CCC(=O)O)NC(=O)[C@@H](NC(=O)[C@@H](NC(=O)[C@H](CCCCN)NC(=O)[C@H](CCCNC(=N)N)NC(=O)[C@H](CC(C)C)NC(=O)[C@H](CC(C)C)NC(=O)[C@H](CCC(N)=O)NC(=O)[C@H](Cc1ccccc1)NC(=O)[C@@H]1CCCN1C(=O)[C@H](CC(C)C)NC(=O)[C@H](CC(=O)O)NC(=O)[C@@H](NC(=O)[C@H](CO)NC(=O)[C@@H](NC(=O)[C@@H]1CCCN1C(=O)[C@@H]1CCCN1C(=O)CNC(=O)[C@@H]1CCC(=O)N1)[C@@H](C)CC)[C@@H](C)CC)C(C)C)[C@@H](C)CC)[C@@H](C)CC)[C@@H](C)O)C(N)=O` [compound 350] the same measures were 11.6 nM, 98.1%, at least 1000 nM and 48%.
